Source: PubChem BioAssay AID652176 (Sanford-Burnham Center for Chemical Genomics, 2013)
Only a part is listed here, and it is no random draw. Some results for these compounds are left out of this collection, so the calls shown say nothing about other tests. Calls of active or inactive are those of the source.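 The calls were made as follows: active = replicate-average signal at least 3 plate SD below neutral wells, shown as high inhibition, flagging enzyme-inhibiting false positives; inactive = the rest.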

What follows are compounds tested on Beta-galactosidase (Escherichia coli), counter-screen for EBI2 antagonists (assay: inhibitors of purified bacterial beta-gal – biochemical, luminescence, single concentration, counter-screen for EBI2 antagonist project, confirmation (AID 652176;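 also: 0% = DMSO wells with enzyme and 100% = wells lacking enzyme; higher means stronger loss of beta-gal luminescence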)). Details: luminescent Galacton Star, 15 min, at 5 µM, hits give high values.

| SMILES | inhibition |
| --- | --- |
| CCCCC(CC)C(=O)N1CCN(C/C=C/c2ccccc2)CC1 (stereo unspecified) | inactive: -11.1% |
